Target: Induced myeloid leukemia cell differentiation protein Mcl-1 (Homo sapiens, UniProt Q07820)
Test: Binding affinity to induced myeloid leukemia cell differentiation protein 1 (unknown origin)

By UniProt entry, the sequences of proteins in these tests, tags left out.
UniProt Q07820, whole entry: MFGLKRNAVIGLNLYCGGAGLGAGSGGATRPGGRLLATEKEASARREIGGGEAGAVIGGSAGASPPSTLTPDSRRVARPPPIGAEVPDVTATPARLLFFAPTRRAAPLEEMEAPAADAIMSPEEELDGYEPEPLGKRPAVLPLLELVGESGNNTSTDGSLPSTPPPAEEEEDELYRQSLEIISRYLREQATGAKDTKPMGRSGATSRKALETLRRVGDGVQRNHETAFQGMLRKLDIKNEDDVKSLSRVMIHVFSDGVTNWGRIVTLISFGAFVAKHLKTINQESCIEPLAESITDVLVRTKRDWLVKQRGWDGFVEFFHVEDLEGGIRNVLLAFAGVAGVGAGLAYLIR

- Ki: > 1 nM
SMILES: CN(C)CC[C@H](CSc1ccccc1)Nc1ccc(S(=O)(=O)NC(=O)c2ccc(N3CCN(Cc4ccccc4-c4ccc(Cl)cc4)CC3)cc2)cc1[N+](=O)[O-] [ABT 737]

— ChEMBL document CHEMBL3351920, “Biased and unbiased strategies to identify biologically active small molecules” (Bioorg Med Chem, 2014)
